From patent US8268635B2, “Methods of identifying agents that selectively activate p38 and/or NKkB signaling” (priority 2006, dated 2012)

Assays:
JNK = JNK activity in WEHI-164 cells; assay type: cell-based; details: 15 mins; TNF 1000 U/ml, TNF132-150 100 μg/ml
Method: A representative radiogram from the Instant Imager and pooled data (means±SEM of 3 experiments) are shown.
WEHI-164 cells were cultured in 28 cm^2 dishes to approx 80% confluence before the desired treatment. […] After washing twice with cold HBSS, cells were harvested by scraping and lysed in 400 μl of buffer A (20 mM HEPES, pH 7.4, 0.5% (v/v) Nonidet P-40, 100 mM NaCl, 1 mM EDTA, 2 mM Na3VO4, 2 mM dithiothreitol, 1 mM phenylmethylsulfonyl fluoride, and 10 μg/ml Sigma 104, leupeptin, aprotonin, pepstatin A, and benzamidine) for 2 h at 4° C. with constant mixing (Hii et al. (1998) J Biol Chem. 273(30):19277-82). After centrifugation (12,000 g×5 min), the supernatants were collected and the protein content of the lysates was determined by Lowry's method of protein determination. A solid phase assay using glutathione-S-transferase (GST)-conjugated-jun (1-79) was employed to assay JNK activity (Hii et al. (1998) J Biol Chem. 273(30):19277-82) GST-jun (1-79) was fractionated on 12% SDS polyacrylamide gels and the bands were detected and radioactivity determined using an Instant Imager (Packard Instruments, Canberra, Australia). For p38 and ERK1/ERK2 activity lysates containing equal amounts of protein (0.5-1 mg) were precleared with protein A sepharose (4° C.) before being incubated with anti-p38 or anti-ERK2 antibody (3 μg/sample). […]

ERK1/ERK2 = ERK1/ERK2 activation in neutrophils in suspension; assay type: cell-based, human; details: TNF, TNF70-80 15 min; PMA 100 nM 5 min
Text: The blots were stripped and reprobed with anti-JNK1 antibody which detected the p46-kDa JNK1 isotype in each lane. […] The cells were lysed and the lysate assessed by western blot analysis for the level of dual-phosphorylated ERK1/ERK2 (top panel) and ERK2 protein (bottom panel). […] The level of myelin basic protein phosphorylation was quantitated by an Instant Imager. Results presented (a and b) are from one experiment, representative of three-four experiments, each conducted using cells from a different donor.
Neutrophils were prepared from peripheral blood of healthy donors by a rapid single-step technique (Kumaratilake, L. M., Rathjen, D. A., Mack, P., Widmer, F., Prasertsiriroj, V., and Ferrante, A. (1995) J. Clin. Invest. 95: 2315-2323) using Hypaque-Ficoll and according to the institution's guidelines on human ethics. The preparations of neutrophils were routinely of >99% viability and >98% purity. […]
Western blot analysis was conducted as described previously (Hii, C. S., Huang, Z. H., Bilney, A., Costabile, M., Murray, A. W., Rathjen, D. A., Der, C. J., and Ferrante, A. (1998) J. Biol. Chem. 273: 19277-19282). […] The amounts of dually phosphorylated ERK1 and ERK2, phospho-JNK and NFκB p65 subunit were detected using rabbit anti-active ERK, mouse anti-phospho JNK and rabbit anti-NFκB antibody, respectively. […]

## TNF: Human recombinant TNF produced by Genentech, Inc.
JNK
  JNK activity in WEHI-164 cells: able to activate all three MAP kinases
ERK1/ERK2
  activity/dual phosphorylation of ERK in neutrophils in suspension: neither TNF nor TNF70-80 stimulated the activity of either JNK or ERK
